Molecules are shown by their SMILES. Bounds are passed on as bounds.

This assay addresses T1, human 17β-HSD1 (Homo sapiens, UniProt P14061).
T1 construct: expressed in transfected cells; host or cells: HEK-293 (ATCC), used as cell lysate
T1 sequence (P14061 1-328): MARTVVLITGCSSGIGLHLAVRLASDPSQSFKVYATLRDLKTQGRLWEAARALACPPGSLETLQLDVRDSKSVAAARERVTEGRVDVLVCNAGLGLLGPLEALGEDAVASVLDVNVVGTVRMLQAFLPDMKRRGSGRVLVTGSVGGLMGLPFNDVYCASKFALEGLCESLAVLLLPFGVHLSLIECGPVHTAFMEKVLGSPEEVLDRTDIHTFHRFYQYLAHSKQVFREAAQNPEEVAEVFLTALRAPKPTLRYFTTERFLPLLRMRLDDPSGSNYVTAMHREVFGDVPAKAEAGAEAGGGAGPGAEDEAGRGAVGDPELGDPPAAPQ
Put plainly: 17β-HSD1 activity assay using lysates of HEK-293 cells expressing the recombinant human enzyme. Conditions: for selectivity factor: 17β-HSD1 versus 17β-HSD2. The assay is classed as biochemical.

Take `CCOC(=O)c1ccc(O)c(OC)c1` [compound 12, ethyl vanillate]: the selectivity factor was over 15. In addition, where the note is “17β-HSD2 over 17β-HSD1”, the “selectivity over 17β-HSD1” value is recorded as at least 8 fold.

Consider `O=C(Cc1ccc(O)c(Cl)c1)NCCc1ccccc1` [compound 13, 2-(3-chloro-4-hydroxyphenyl)-N-phenethylacetamide], for which the selectivity factor is listed as over 12.

Consider `O=C(Cc1ccc(O)c(Cl)c1)NCc1ccccc1` [compound 16, N-benzyl-2-(3-chloro-4-hydroxyphenyl)acetamide], for which the selectivity factor is listed as over 5.

`O=C(Cc1ccc(O)c(Cl)c1)NCCc1c[nH]c2ccccc12` [compound 17, N-(2-(1H-indol-3-yl)ethyl)-2-(3-chloro-4-hydroxyphenyl)acetamide]: the selectivity factor is listed as over 20.
